Reference: US20260384430A1, “PERIPHERALLY RESTRICTED GABA POSITIVE ALLOSTERIC MODULATORS FOR THE TREATMENT OF IRRITABLE BOWEL SYNDROME AND OTHER AILMENTS OF THE PERIPHERAL NERVOUS SYSTEM” (published 2026)

The chains behind the UniProt entries cited, without tags or fusion partners. Residues count along the entry.
UniProt P18507, 40-475 limits assumed: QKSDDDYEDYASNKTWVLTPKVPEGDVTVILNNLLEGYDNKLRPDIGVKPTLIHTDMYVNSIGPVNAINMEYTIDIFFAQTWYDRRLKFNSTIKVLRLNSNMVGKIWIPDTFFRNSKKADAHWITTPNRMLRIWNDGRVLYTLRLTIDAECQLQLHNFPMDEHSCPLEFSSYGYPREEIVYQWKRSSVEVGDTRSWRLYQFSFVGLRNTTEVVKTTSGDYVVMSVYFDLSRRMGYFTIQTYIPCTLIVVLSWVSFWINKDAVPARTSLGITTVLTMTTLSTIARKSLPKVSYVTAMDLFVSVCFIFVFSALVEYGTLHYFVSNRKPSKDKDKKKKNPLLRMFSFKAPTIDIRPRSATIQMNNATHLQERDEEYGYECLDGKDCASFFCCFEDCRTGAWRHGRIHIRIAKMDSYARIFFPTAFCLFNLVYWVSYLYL
UniProt P34903, 29-492 limits assumed: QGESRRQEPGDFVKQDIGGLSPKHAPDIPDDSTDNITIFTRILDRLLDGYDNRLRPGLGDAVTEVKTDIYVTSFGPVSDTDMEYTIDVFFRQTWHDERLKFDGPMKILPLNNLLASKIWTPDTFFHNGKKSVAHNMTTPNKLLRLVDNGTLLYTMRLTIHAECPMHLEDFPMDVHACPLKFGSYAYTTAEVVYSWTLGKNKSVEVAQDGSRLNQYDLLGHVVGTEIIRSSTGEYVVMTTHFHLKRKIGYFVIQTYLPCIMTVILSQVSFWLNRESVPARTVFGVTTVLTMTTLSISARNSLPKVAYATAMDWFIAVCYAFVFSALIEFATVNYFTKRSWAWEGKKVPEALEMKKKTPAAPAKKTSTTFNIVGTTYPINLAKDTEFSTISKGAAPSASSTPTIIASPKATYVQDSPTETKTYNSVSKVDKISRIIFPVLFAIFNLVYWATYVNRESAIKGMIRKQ
UniProt P47870, 25-512 partner limits assumed: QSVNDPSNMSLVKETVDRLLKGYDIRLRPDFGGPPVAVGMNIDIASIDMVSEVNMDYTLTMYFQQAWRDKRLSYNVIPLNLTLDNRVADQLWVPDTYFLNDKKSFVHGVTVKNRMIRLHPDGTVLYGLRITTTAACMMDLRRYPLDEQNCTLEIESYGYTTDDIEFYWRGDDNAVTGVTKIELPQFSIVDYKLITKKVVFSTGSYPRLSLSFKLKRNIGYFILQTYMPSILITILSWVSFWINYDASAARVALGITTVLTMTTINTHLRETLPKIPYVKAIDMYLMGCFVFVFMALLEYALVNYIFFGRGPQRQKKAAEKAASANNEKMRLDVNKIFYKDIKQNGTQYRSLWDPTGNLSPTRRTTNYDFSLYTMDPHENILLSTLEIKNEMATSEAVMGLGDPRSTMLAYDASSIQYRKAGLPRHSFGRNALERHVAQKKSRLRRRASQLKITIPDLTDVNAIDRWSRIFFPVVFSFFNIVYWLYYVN

Biological target: GABAA(α3β2γ2) (Homo sapiens, UniProt P18507+P34903)
Assay: Modulatory effect (automated patch-clamp, QPatch) on GABA-evoked currents in cells stably transfected with GABAA(α3β2γ2)
Settings: transfected Ltk cells, 2.0 μM GABA for 4 s, holding potential −80 mV; for EC50: 30 s prewash with test item, room temperature; for Max % (Emax): upper asymptote of dose-response fit
Description: Modulatory effects of the compounds of this disclosure were investigated using cells stably transfected with GABA-activated channels of the GABAA(α3β2γ2) subtype together with submaximal GABA concentrations. Expression of GABA receptor were induced by adding Dexamethasone to the cells for 24 to 48 h before experimentation. In general, cells were passaged at a confluence of about 80 to 90%. For electrophysiological measurements cells were harvested at a confluence of about 80 to 90% from sterile culture flasks containing culture complete medium. Cells were transferred as suspension in PBS to the QPatch 16× or QPatch HTX system to the centrifuge/washer directly. Cells were incubated at 37 °C in a humidified atmosphere with 5% CO2 (rel. humidity about 95%). The cells were continuously maintained in and passaged in sterile culture flasks containing a 1:1 mixture of Dulbecco's modified eagle medium and nutrient mixture D-MEM/F-12 (1×, liquid, with L-Glutamine), supplemented with 10% foetal bovine serum and 1.0% Penicillin/Streptomycin solution and neomycin. The 1× bath solution was made at least every 5 days out of a sterile 10× bath solution, which had been prepared prior to the experimental start of the present study and stored at 1 °C to 9 °C. The final bath solution included Sodium Chloride 137 mM, Potassium Chloride 4 mM, Calcium Chloride 1.8 mM, Magnesium Chloride 1 mM, HEPES 10 mM, D-Glucose 10 mM, pH (NaOH) 7.4. The 1× intracellular solution was thawed every day and includes Potassium Chloride 130 mM, Magnesium Chloride 1 mM, Mg-ATP 5 mM, HEPES 10 mM, EGTA 5 Mm, pH (KOH) 7.2. Automated patch-clamping: Cells were transferred as suspension in serum-free medium to the QPatch HTX system and kept in the cell storage tank during experiments. All solutions applied to cells including the intracellular solution were maintained at room temperature (19 °C to 30 °C). After formation of a Gigaohm seal between the patch electrodes and transfected individual Ltk cells were ruptured to assure electrical access to the cell interior (whole-cell patch-configuration). Inward currents were measured upon application of 2.0 μM GABA to patch-clamped cells for 4 s. During the entire experiment the cells were voltage-clamped at a holding potential of −80 mV. For the analysis of test items, GABAA receptors were stimulated by 2.0 μM GABA and test item combinations described below. Thirty-second prewash steps with test items was performed in between two agonist applications. The dose-response curve was fit with a sigmoidal three parameter equation current=Emax/1+10^((LogEC50−X)*H) where X is the compound concentration, Emax the upper asymptote, EC50 the concentration of test item at half maximal effect, and H is the Hill coefficient. SigmaPlot 11.0 was used for construction of curve.

| SMILES | EC50 [nM] | Max % (Emax) |
| --- | --- | --- |
| O=C(O)c1ncn2c1CN=C(c1ccccc1F)c1cc(Cl)ccc1-2 | < 50 | ++ (Emax is 50-100%) |
| O=C(O)c1cnn2c1CN=C(c1ccccc1F)c1cc(Cl)ccc1-2 | 50 to 100 | +++ (Emax >100%) |
| O=C(O)c1nnn2c1CN=C(c1ccccc1F)c1cc(Cl)ccc1-2 | < 50 | ++ (Emax is 50-100%) |
